The numbers were not newly measured in patent US20260085262A1, “ACQ FLUORESCENCE PROBE COMPOSITION, CMC DETERMINATION METHOD, STAIN CLEANING CONCENTRATION DETERMINATION METHOD, DETERGENT DISPENSING CONTROL METHOD, AND DETERGENT DISPENSING CONTROL SYSTEM” (GUANGZHOU BLUEMOON INDUSTRIAL CO., LTD., priority 2024, published 2026), which cites them from elsewhere.

The conditions of this series: solvent; cited from earlier work.

In the case of n-Butanol, the Flash point is 37 °C and the Viscosity is listed as 2.95 mPa · s.
